{"source": "patent US9034928B2", "about": "“Methods for metabolic imaging” (IMAGNX, Inc., priority 2011, dated 2015)", "key": {"rat brain": {"test_system": "rat brain", "assay": "Imaging of TCA cycle metabolism in a rat brain after carotid arterial injection", "details": "for delivery to the brain / blood-brain barrier: carotid arterial injection, rat"}, "[1]": {"assay": "^13C FISP imaging in vivo (relative location after injection)", "details": "mouse"}, "[2]": {"test_system": "RENCA tumors and breast cancer (4T1) tumors"}}}
{"molecule": "[2H]C(C(=O)OCC)C([2H])[13C](=O)OCC", "note": "(centres unmarked) [diethyl 1-^13C 2,3-d2 succinate]", "values": [{"measurement": "downstream TCA cycle metabolic products identified", "setting": "rat brain; ^13C MR spectroscopy of the rat brain", "value": "succinate, malate, and glutamate"}, {"measurement": "delivery to the brain / blood-brain barrier", "setting": "rat brain", "value": "delivered to the brain"}, {"measurement": "delivery to the brain / blood-brain barrier", "setting": "rat brain; listed as diethyl 1-^13C 2,3-d2 succinate", "value": "crosses the blood-brain barrier"}, {"measurement": "time after administration at which TCA cycle metabolites are observed", "setting": "rat brain; rat brain", "value": "≤ 5", "unit": "s"}, {"measurement": "location of the hyperpolarized compound and its metabolites", "setting": "[1]; intraperitoneal injection, 20 μmol", "value": "stay primarily in the peritoneum"}, {"measurement": "location of the hyperpolarized molecule", "setting": "[1]; intravenous injection, 10 μmol", "value": "collects in the bladder and ureters"}, {"measurement": "metabolism in tumors", "setting": "[2]; ^13C CSI, RENCA and breast (4T1)", "value": "observed in both tumors"}, {"measurement": "biodistribution in the two types of tumors", "setting": "[2]; tail vein, 10-20 μmol, RENCA vs breast (4T1)", "value": "different biodistribution"}]}
